# Measured affinities in a library of Ab-14 heavy chain variants

Reference: Li et al. 2023, doi:10.1038/s41467-023-39022-2. File: FLAb, binding data.

All variants were tested on one target, the spike HR2 peptide PDVDLGDISGINAS (SARS-CoV-2).

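The starting antibody came from a phage panning campaign against this peptide. The variants were designed computationally from a first round of random CDR variants and then made and measured. Their group label is 14H_GP_Gen (GP: Gaussian process model; Gen: genetic algorithm; a sequence that several methods proposed may carry one label only). The scFvs were displayed on barcoded MATa yeast, the peptide on MATalpha yeast. The frequency of each diploid, read from paired DNA barcodes, reflects how well the two displayed proteins bind. The ratio of observed to expected reads was calibrated, replicate by replicate, on BCL2-family standards whose Kd was known from biolayer interferometry. The assay was run in six technical replicates.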

Parent scFv Ab-14: VH joined to VL by a 15-residue (Gly4Ser)3 linker. Changes lie in the heavy chain CDRs alone.
VH: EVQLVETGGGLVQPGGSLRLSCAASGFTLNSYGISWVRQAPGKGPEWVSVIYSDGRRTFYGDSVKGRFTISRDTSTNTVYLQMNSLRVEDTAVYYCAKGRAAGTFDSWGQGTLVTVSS
VL: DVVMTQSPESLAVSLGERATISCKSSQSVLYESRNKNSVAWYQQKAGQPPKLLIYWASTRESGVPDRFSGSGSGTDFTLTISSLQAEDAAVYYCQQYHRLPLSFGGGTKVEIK

Variants are written as CDR1, CDR2 and CDR3 of the heavy chain (limits as in the source). Parent: GFTLNSYGIS, VIYSDGRRTFYGDSVK, GRAAGTFDS.
Values are log10 of the apparent Kd in nM; lower means stronger binding.
Where no diploid with the target was found in that replicate, the entry reads "nd": below detection, most likely a poor binder, though not proof of it.
A sequence measured in both rounds can read differently, since the two assays cover different ranges.
The authors averaged sequences with at least three values out of six and counted those with two or fewer as poor binders.
The parent sequence was in this pool as ten entries: three were never detected, three once, and four in most replicates, with averages from 0.34 to 2.37.
Nonspecific signal, from three strains lacking the peptide, appeared in 1% of pairings of all heavy chain designs, centred on 2.08 (5% of these signals below 0.84); values are not corrected for it. For each scFv, signals with the empty controls are counted beside the result.

For GFDLNSYGIS, VIYSDGRRTFYGDRVK, GRTAGTFDT, the assay gave 0.17, 0.15, -0.21, -0.45, 0.25, 0.53 (controls 0 of 18).
For GFQLNEYGIS, VIYSDGRRTFYGDQVK, GKAAGTFDS, the assay gave 0.36, 0.69, 0.80, 0.63, 0.34, 0.76 (controls 0 of 18).
For GFHLNSYGIS, VIYSDGRRTFYGDSVK, GRTAGTFDA, the assay gave 1.25, 1.04, 0.95, 1.22, 0.82, 0.96 (controls 1 of 18).
For GFDLNSYGIS, VIYSDGRRTFYGDQVK, GQIAGTFDS, the assay gave 0.71, 0.78, 0.49, 0.37, 0.20, 0.35 (controls 1 of 18).
For PFTLESYGIS, VIYADGRRTFYGDSVK, GRAAGTFDS, the assay gave nd, 0.69, 1.62, 1.27, 1.49, 2.97 (controls 0 of 18).
For GFELNSYGIS, VIYSDGRRTFYGDSVK, GVQAGTFDS, the assay gave nd, nd, nd, nd, nd, nd (controls 0 of 18).
For GFTLESYGIS, VIYSDGRRTFYADDVK, GQAAGTFDS, the assay gave 0.86, 0.89, 1.22, 0.95, 1.35, 1.55 (controls 0 of 18).
For GFDLNSYGIS, VIYSDGRRTFYGDSVK, GNAAGTFDA, the assay gave nd, nd, nd, nd, nd, nd (controls 0 of 18).
For GFDLKSYGIS, VIYSDGRRTFYGDSVK, GRTAGTFDS, the assay gave 0.22, 0.14, -0.11, -0.01, 0.05, 0.10 (controls 1 of 18).
For KFSLNSYGIS, VIYSDGRRTFYGDSVK, GRNAGTFDS, the assay gave nd, nd, nd, nd, nd, nd (controls 0 of 18).
For GFELNSYGIS, VIYSDGRRTFYHDSVK, GQTAGTFDS, the assay gave 0.70, 0.81, 0.92, 0.47, 0.58, 0.34 (controls 0 of 18).
For GFDLNSYGIS, VIYSDGRRTFYGDQVK, GRMAGTFDS, the assay gave 0.69, 1.57, 0.47, nd, 1.23, 1.78 (controls 1 of 18).
For GFSLNEYGIS, VIYSDGRRTFYGDDVK, GQAAGTFDS, the assay gave 0.27, 0.53, 0.10, 1.08, nd, -0.06 (controls 0 of 18).
For KFDLNSYGIS, VIYSDGRRTFYQDSVK, GKAAGTFDS, the assay gave nd, 0.51, 0.07, -0.12, nd, 0.36 (controls 0 of 18).
For GFDLNSYGIS, VIYSDGRRTFYGDSVK, GREAGTFDM, the assay gave 0.26, 0.10, 0.09, 0.01, 0.13, 0.01 (controls 0 of 18).
For GFQLNDYGIS, VIYSDGRRTFYKDSVK, GRTAGTFDS, the assay gave 0.44, 0.14, 1.12, 0.08, 0.38, 0.65 (controls 0 of 18).
For LFDLNSYGIS, VIYSDGRRTAYGDSVK, GRTAGTFDS, the assay gave 1.21, 1.24, 0.73, 0.55, 1.09, 1.03 (controls 1 of 18).
For MFDLNSYGIS, VIYSDGRRTFYKDSVK, GRTAGTFDS, the assay gave nd, 1.82, nd, nd, nd, nd (controls 0 of 18).
For GFALNEYGIS, VIYSDGRRTFYGDSVK, GEAAGTFDS, the assay gave -0.21, -0.72, nd, 0.07, -0.51, 0.18 (controls 0 of 18).
For HFSLNEYGIS, VIYSDGRRTFYGDSVK, GRQAGTFDS, the assay gave 0.87, 1.09, 0.75, 1.50, 0.77, 1.04 (controls 1 of 18).
For GFNLNSYGIS, VIYSDGRRTFYGDNVK, GEAAGTFDS, the assay gave 0.76, 0.74, 0.54, 0.42, 0.52, 0.44 (controls 1 of 18).
For KFGLNEYGIS, VIYSDGRRTFYGDSVK, GRTAGTFDS, the assay gave nd, 1.57, nd, nd, nd, nd (controls 0 of 18).
For GFDLNSYGIS, VIYSDGRRTAYGDSVK, GRQAGTFDS, the assay gave 0.09, 0.02, 0.96, 0.77, 0.34, 0.43 (controls 2 of 18).
For GFSLNSYGIS, VIYSDGRRTFYQDDVK, GRTAGTFDS, the assay gave 0.04, 0.24, -0.41, 0.13, -0.19, 0.37 (controls 0 of 18).
For GFDLNSYGIS, VIYSDGRRTFYDDSVK, GNAAGTFDS, the assay gave nd, 0.69, 0.74, 0.38, 0.29, -0.15 (controls 0 of 18).
For GFELNSYGIS, VIYSDGRRTFYGDSVK, GAEAGTFDS, the assay gave 0.51, 0.34, -0.56, -0.25, 0.24, 1.56 (controls 0 of 18).
For GFELNEYGIS, VIYSDGRRTFYGDSVK, GKTAGTFDA, the assay gave nd, 1.32, 0.67, 2.82, nd, 0.78 (controls 0 of 18).
For GFELNMYGIS, VIYSDGMRTFYGDSVK, GRTAGTFDS, the assay gave 2.48, 1.08, 2.27, 1.71, 2.64, 1.54 (controls 1 of 18).
For GFSLNSYGIS, VIYSDGRRTFYIDSVK, GRMAGTFDS, the assay gave 1.42, 0.95, nd, 1.65, 2.34, 1.64 (controls 0 of 18).
For GFELNSYGIS, VIYSDGRRTFYGDSVK, GNAAGTFDT, the assay gave 0.73, 0.95, 0.64, 0.43, 1.06, 0.79 (controls 1 of 18).
For MFSLNSYGIS, VIYSDGRRTFYIDSVK, GNAAGTFDS, the assay gave nd, nd, nd, nd, nd, nd (controls 0 of 18).
For GFELNSYGIS, VIYSDGRRTFYGDSVK, GVNAGTFDT, the assay gave 0.13, 0.22, 0.13, 0.38, -0.17, 0.04 (controls 0 of 18).
For GFDLNSYGIS, VIYSDGRRTFYGDSVK, GKTAGTFDA, the assay gave -0.09, -0.04, -0.08, -0.19, 0.65, -0.26 (controls 0 of 18).
For GFDLNSYGIS, VIYSDGRRTFYGDSVK, GQAAGTFDK, the assay gave 0.88, 0.55, -0.15, -0.58, 0.64, nd (controls 0 of 18).
For GFDLNSYGIS, VIYSDGRRTFYVDDVK, GRTAGTFDS, the assay gave -0.06, 0.36, 0.08, 0.11, 0.05, 0.18 (controls 1 of 18).
For GFTLEMYGIS, VIYSDGRRTFYGDSVK, GRTAGTFDS, the assay gave nd, 1.37, nd, 0.13, nd, nd (controls 0 of 18).
For GFQLNSYGIS, VIYSDGRRTFYQDSVK, GEAAGTFDS, the assay gave 0.99, 0.79, 1.23, nd, 2.34, 1.13 (controls 1 of 18).
For GFQLNEYGIS, VIYSDGRRTFYGDQVK, GQAAGTFDS, the assay gave nd, 0.78, nd, -0.19, -0.17, 0.42 (controls 0 of 18).
For GFALNEYGIS, VIYSDGRRTFYGDSVK, GWTAGTFDS, the assay gave 0.70, 0.39, 0.87, 0.16, 0.17, 0.45 (controls 1 of 18).
For GFTLNSYGIS, VIYSDGRRTFYGDDVK, GQTAGTFDL, the assay gave 0.90, 1.56, 0.63, 1.35, 1.50, 1.07 (controls 0 of 18).

7 of these entries, quoted again:

CDR-H1	CDR-H2	CDR-H3	replicates, log10 nM	control signals
GFDLNSYGIS	VIYSDGRRTFYGDSVK	GKTAGTFDA	-0.09, -0.04, -0.08, -0.19, 0.65, -0.26	0/18
GFTLEMYGIS	VIYSDGRRTFYGDSVK	GRTAGTFDS	nd, 1.37, nd, 0.13, nd, nd	0/18
GFQLNDYGIS	VIYSDGRRTFYKDSVK	GRTAGTFDS	0.44, 0.14, 1.12, 0.08, 0.38, 0.65	0/18
GFDLNSYGIS	VIYSDGRRTFYGDQVK	GRMAGTFDS	0.69, 1.57, 0.47, nd, 1.23, 1.78	1/18
GFHLNSYGIS	VIYSDGRRTFYGDSVK	GRTAGTFDA	1.25, 1.04, 0.95, 1.22, 0.82, 0.96	1/18
GFELNSYGIS	VIYSDGRRTFYGDSVK	GVQAGTFDS	nd, nd, nd, nd, nd, nd	0/18
GFELNMYGIS	VIYSDGMRTFYGDSVK	GRTAGTFDS	2.48, 1.08, 2.27, 1.71, 2.64, 1.54	1/18